Source: EP3546476A1 (Repligen Corporation, dated 2019)

Target: Cetuximab (IgG1)
Experiment: SPR, Biacore 3000, CM5 chip, 25 °C, Langmuir 1:1 model

Binder	Kd [nM]
cs14 (designed binder) IAAKHDKDQQAAFYEILHLPNLTEDQRNAFIQSLRDDPSVSLEILGEAKKLNDAQAPPWSHPQFEK	2.9
cs26 (designed binder) IAAQHDKDQQAAFYEILHLPNLTEEQRNAFIQSLRDDPSVSLEILAEAKKLNDAQAPKWSHPQFEK	6.5
